Target: T1, histamine H2-receptors (Cavia porcellus, UniProt P47747)
T1 construct: The spontaneously beating right atrium was dissected free from other tissues; from tissue; host or cells: isolated right atrium of male Hartley strain guinea pigs
Experiment: Histamine H2-receptor antagonism, isolated guinea pig right atria assay
Type: cell-based, Hartley strain guinea pigs
Conditions: Schild plot, 30-minute incubation, 95% confidence limits in parentheses, read-out: KB (dissociation constant)
Source text: Histamine produces concentration-related increases in the contractile rate of isolated, spontaneously beating guinea pig right atria. […] Subsequent investigations by Hughes and Coret, Proc. Soc. Exp. Biol. Med., 148, 127 (1975) and Verma and McNeill, J. Pharmacol. Exp. Ther., 200, 352 (1977) support the conclusion of Black and coworkers that the positive chronotropic effect of histamine in isolated guinea pig right atria is mediated via histamine H2 -receptors. Black et al., Agents and Actions, 3, 133 (1973) and Brimblecombe et al., Fed. Proc., 35, 1931 (1976) have utilized isolated guinea pig right atria as a means for comparing the activities of histamine H2 -receptor antagonists. The present comparative studies were carried out using a modification of the procedure reported by Reinhardt et al., Agents and Actions, 4, 217 (1974).
Male Hartley strain guinea pigs (350-450 gm) were sacrificed by a blow on the head. The heart was excised and placed in a Petri dish of oxygenated (95% O2, 5% CO2) modified Krebs solution (g/liter: NaCl 6.6, KCl 0.35, MgSO4.7H2 O 0.295, KH2 PO4 0.162, CaCl2 0.238, NaHCO3 2.1 and dextrose 2.09). […] Atrial contractions were recorded isometrically by means of a Grass FT 0.03 force displacement transducer and recordings of contractile force and rate were made with a Beckman RP Dynograph. […]

Amino acid sequences for entries named in this document (tags omitted).
UniProt P47747, whole entry: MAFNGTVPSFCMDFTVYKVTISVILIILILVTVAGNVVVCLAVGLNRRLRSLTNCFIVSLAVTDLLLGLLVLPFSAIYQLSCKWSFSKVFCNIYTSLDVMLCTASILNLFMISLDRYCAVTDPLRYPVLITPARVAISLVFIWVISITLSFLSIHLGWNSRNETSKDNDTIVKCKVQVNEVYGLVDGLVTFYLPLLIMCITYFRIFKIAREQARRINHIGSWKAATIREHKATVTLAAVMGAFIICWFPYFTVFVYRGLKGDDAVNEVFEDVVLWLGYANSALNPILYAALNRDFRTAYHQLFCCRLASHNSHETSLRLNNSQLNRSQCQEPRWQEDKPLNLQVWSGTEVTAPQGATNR

SMILES: CN/C(=N/CCSCc1nc[nH]c1C)NC#N [cimetidine, reference compound]
- Kb: 410 nM
